The values below come from ChEMBL document CHEMBL4229484, “7β-Methyl substituent is a structural locus associated with activity cliff for nepenthone analogues” (2018).

The chains behind the UniProt entries cited, without tags or fusion partners.
UniProt P41145, whole entry: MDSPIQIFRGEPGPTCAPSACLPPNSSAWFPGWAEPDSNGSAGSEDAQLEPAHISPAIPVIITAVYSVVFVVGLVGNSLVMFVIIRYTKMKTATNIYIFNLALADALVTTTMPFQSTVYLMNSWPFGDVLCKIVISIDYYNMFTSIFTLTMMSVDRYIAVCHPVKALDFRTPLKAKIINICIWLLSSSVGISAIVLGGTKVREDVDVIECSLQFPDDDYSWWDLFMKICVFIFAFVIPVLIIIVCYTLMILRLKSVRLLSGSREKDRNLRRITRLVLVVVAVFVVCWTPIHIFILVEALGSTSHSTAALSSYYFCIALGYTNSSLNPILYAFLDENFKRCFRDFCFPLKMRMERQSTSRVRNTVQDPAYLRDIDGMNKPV
UniProt P41143, whole entry: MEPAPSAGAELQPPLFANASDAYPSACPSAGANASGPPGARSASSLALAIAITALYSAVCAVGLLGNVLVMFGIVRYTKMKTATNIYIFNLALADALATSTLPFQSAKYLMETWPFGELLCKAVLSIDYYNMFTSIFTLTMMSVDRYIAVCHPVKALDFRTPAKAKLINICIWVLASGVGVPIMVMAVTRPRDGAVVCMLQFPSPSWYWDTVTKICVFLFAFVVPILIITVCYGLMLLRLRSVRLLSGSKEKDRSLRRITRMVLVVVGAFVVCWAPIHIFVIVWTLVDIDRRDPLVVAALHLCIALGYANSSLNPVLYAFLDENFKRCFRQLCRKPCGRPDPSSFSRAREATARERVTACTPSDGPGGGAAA
UniProt P33533, whole entry: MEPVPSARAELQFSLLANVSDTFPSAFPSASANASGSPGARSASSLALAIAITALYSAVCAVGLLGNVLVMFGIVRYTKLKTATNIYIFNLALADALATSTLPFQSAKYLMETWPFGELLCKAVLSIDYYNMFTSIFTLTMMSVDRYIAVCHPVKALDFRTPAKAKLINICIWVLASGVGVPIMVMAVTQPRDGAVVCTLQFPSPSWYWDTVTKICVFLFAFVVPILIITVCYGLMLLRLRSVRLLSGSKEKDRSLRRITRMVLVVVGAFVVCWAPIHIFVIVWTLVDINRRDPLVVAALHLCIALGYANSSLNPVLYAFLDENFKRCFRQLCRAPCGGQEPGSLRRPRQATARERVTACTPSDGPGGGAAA
UniProt P35372, whole entry: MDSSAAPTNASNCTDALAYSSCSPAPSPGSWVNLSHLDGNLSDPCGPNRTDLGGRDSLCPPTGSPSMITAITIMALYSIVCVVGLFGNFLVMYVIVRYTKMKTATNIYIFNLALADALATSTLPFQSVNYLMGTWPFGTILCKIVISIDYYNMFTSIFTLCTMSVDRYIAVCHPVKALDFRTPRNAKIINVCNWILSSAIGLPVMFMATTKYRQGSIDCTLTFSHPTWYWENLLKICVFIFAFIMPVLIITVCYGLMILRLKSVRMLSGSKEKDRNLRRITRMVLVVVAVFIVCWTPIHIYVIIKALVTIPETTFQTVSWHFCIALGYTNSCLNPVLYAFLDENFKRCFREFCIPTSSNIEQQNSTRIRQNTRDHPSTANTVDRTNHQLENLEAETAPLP
UniProt P33535, whole entry: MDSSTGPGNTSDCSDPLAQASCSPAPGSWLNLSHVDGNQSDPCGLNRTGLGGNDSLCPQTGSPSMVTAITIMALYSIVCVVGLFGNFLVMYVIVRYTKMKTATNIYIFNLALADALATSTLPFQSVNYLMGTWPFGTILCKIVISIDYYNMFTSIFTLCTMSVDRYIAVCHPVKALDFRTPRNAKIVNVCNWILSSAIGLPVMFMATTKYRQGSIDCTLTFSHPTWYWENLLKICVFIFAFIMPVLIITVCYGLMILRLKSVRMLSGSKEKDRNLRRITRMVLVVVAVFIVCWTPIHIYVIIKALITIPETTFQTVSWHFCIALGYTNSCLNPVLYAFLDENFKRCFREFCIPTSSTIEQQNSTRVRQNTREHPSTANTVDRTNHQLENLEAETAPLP

For test [1], the target named is T1, Kappa-type opioid receptor (Homo sapiens, UniProt P41145). The test is described as follows: Displacement of [3H]U69,593 from human KOR expressed in CHO cell membranes after 30 mins by liquid scintillation counting analysis. Background: Displacement assays read how much labelled ligand stays bound in the presence of the test substance.
Test [2] has as its target Delta-type opioid receptor (Homo sapiens, UniProt P41143). As to the kind of experiment: Displacement of [3H]DPDPE from human DOR expressed in CHO cell membranes after 30 mins by liquid scintillation counting analysis.
Test [3] addresses T1, Kappa-type opioid receptor. The test is described as follows: Agonist activity at human KOR expressed in CHO cell membranes after 1 hr by [35S]GTPgammaS binding based liquid scintillation counting analysis. (GTPγS is a poorly hydrolysed GTP analogue; its binding reports G protein activation.)
Test [4] has as its target Delta-type opioid receptor (Rattus norvegicus, UniProt P33533). As to the kind of experiment: Agonist activity at rat DOR expressed in CHO cell membranes after 1 hr by [35S]GTPgammaS binding based liquid scintillation counting analysis.
The target in test [5] is Mu-type opioid receptor (Homo sapiens, UniProt P35372). As to the kind of experiment: Displacement of [3H]DAMGO from human MOR expressed in CHO cell membranes after 30 mins by liquid scintillation counting analysis.
In test [6] the target is Mu-type opioid receptor (Rattus norvegicus, UniProt P33535). As to the kind of experiment: Agonist activity at rat MOR expressed in CHO cell membranes after 1 hr by [35S]GTPgammaS binding based liquid scintillation counting analysis.

With `COc1ccc(C(O)[C@@]2(C)C[C@@]34CC[C@]2(OC)[C@@H]2Oc5c(OC)ccc6c5[C@@]23CCN(CC2CC2)[C@@H]4C6)cc1` (some centres undefined), the results for the Ki in test [1] and in test [2] were 0.6 nM and 18.9 nM, respectively.
Regarding `COc1ccc2c3c1O[C@H]1[C@@]4(OC)CC[C@@]5(C[C@]4(C)C(=O)c4ccc(C(F)(F)F)cc4)[C@@H](C2)N(CC2CC2)CC[C@]315`, the EC50 in test [3] is 173 nM; in test [4] it was 1760 nM. The inhibition constant (Ki) was 72.1 nM in test [1] and 127 nM in test [2].
For `COc1ccc2c3c1O[C@H]1[C@@]4(OC)CC[C@@]5(C[C@]4(C)C(O)c4ccccc4)[C@@H](C2)N(CC2CC2)CC[C@]315` (some centres undefined), the Ki at Mu-type opioid receptor [5] came out at 783 nM; in test [1], 38 nM; in test [2], 485 nM.
With `COc1ccc2c3c1O[C@H]1[C@@]4(OC)CC[C@@]5(C[C@]4(C)C=O)[C@@H](C2)N(CC2CC2)CC[C@]315`, the Ki on Mu-type opioid receptor [5] was 49.3 nM; in test [1], 4.6 nM; in test [2], 179 nM. In addition, the EC50 on Mu-type opioid receptor [6] came out at 428 nM; in test [4], 144 nM.
For the compound `COc1ccc2c3c1O[C@H]1[C@@]4(OC)CC[C@@]5(C[C@]4(C)C(O)c4ccc(-c6ccccc6)cc4)[C@@H](C2)N(CC2CC2)CC[C@]315` (some centres undefined), the inhibition constant Ki in test [1] amounted to 303 nM; in test [2] it was 48.6 nM.
As for `COc1ccc(C(=O)[C@@]2(C)C[C@@]34CC[C@]2(OC)[C@@H]2Oc5c(OC)ccc6c5[C@@]23CCN(CC2CC2)[C@@H]4C6)cc1`, the concentration giving a half-maximal response (EC50) worked out at 65.4 nM in test [3], 146 nM on Mu-type opioid receptor [6] and 594 nM in test [4]. Moreover, the inhibitory constant (Ki) is 39.3 nM at Mu-type opioid receptor [5], 48.5 nM in test [1] and 123 nM in test [2].
On to `COc1ccc2c3c1O[C@H]1[C@@]4(OC)CC[C@@]5(C[C@]4(C)OC(C)=O)[C@@H](C2)N(CC2CC2)CC[C@]315`, for which the results for the Ki (on Mu-type opioid receptor [5]; in test [1]; in test [2]) were 7.2 nM, 9 nM and 104 nM, respectively.
For `COc1ccc2c3c1O[C@H]1[C@@]4(OC)CC[C@@]5(C[C@]4(C)CO)[C@@H](C2)N(CC2CC2)CC[C@]315`, the inhibitory constant (Ki) on Mu-type opioid receptor [5] was 30.3 nM; in test [1] it was 2.7 nM; in test [2], 116 nM. Moreover, the concentration giving a half-maximal response (EC50) at Mu-type opioid receptor [6] was 87.3 nM; in test [4], 90.8 nM.
Turning to `COc1cccc(C(O)[C@@]2(C)C[C@@]34CC[C@]2(OC)[C@@H]2Oc5c(OC)ccc6c5[C@@]23CCN(CC2CC2)[C@@H]4C6)c1` (some centres undefined), the figures for the inhibition constant Ki in test [1] and in test [2] were 2.1 nM and 26.3 nM, respectively.
Consider `COc1ccc2c3c1O[C@H]1[C@@]4(OC)CC[C@@]5(C[C@]4(C)OC(=O)c4ccc(C(F)(F)F)cc4)[C@@H](C2)N(CC2CC2)CC[C@]315`, for which the Ki stood at 7.1 nM at Mu-type opioid receptor [5], 169 nM in test [1] and 160 nM in test [2].
With `COc1ccc2c3c1O[C@H]1[C@@]4(OC)CC[C@@]5(C[C@]4(C)C(=O)c4ccc(-c6ccccc6)cc4)[C@@H](C2)N(CC2CC2)CC[C@]315`, the EC50 in test [3] was 87.2 nM; at Mu-type opioid receptor [6], 766 nM; in test [4], 31.2 nM. In addition, the Ki on Mu-type opioid receptor [5] amounted to 485 nM; in test [1] it was 263 nM; in test [2] it was 349 nM.
Regarding `COc1ccc2c3c1O[C@H]1[C@@]4(OC)CC[C@@]5(C[C@]4(C)OC(=O)c4ccccc4)[C@@H](C2)N(CC2CC2)CC[C@]315`, the Ki on Mu-type opioid receptor [5] came out at 73.9 nM; in test [1] it was 1250 nM; in test [2], 55.4 nM.
With `COc1ccc2c3c1O[C@H]1[C@@]4(OC)CC[C@@]5(C[C@]4(C)C(O)c4ccc(C(F)(F)F)cc4)[C@@H](C2)N(CC2CC2)CC[C@]315` (some centres undefined), the inhibition constant (Ki) on Mu-type opioid receptor [5] came out at 12.7 nM; in test [1], 9.1 nM; in test [2], 59.3 nM.
As for `COc1ccc2c3c1O[C@H]1[C@@]4(OC)CC[C@@]5(C[C@]4(C)C(=O)c4ccccc4)[C@@H](C2)N(CC2CC2)CC[C@]315`, the figures for the EC50 (in test [3]; on Mu-type opioid receptor [6]; in test [4]) were 1460 nM, 1600 nM and 9990 nM, respectively. Moreover, the inhibition constant Ki on Mu-type opioid receptor [5] is 303 nM; in test [1], 33.2 nM; in test [2], 345 nM.
Turning to `COc1ccc2c3c1O[C@H]1[C@@]4(OC)CC[C@@]5(C[C@]4(C)OC(=O)C(C)C)[C@@H](C2)N(CC2CC2)CC[C@]315`, the values for the Ki (at Mu-type opioid receptor [5]; in test [1]; in test [2]) were 34.1 nM, 28 nM and 264 nM, respectively.
With `COc1ccc2c3c1O[C@H]1[C@@]4(OC)C=C[C@@]5(C[C@@H]4C(=O)c4ccccc4)[C@@H](C2)N(CC2CC2)CC[C@]315`, the EC50 is 1 nM in test [3], 130 nM on Mu-type opioid receptor [6] and 678 nM in test [4]. In addition, the inhibitory constant (Ki) stood at 130 nM on Mu-type opioid receptor [5] and 0.4 nM in test [1].
With `COc1cccc(C(=O)[C@@]2(C)C[C@@]34CC[C@]2(OC)[C@@H]2Oc5c(OC)ccc6c5[C@@]23CCN(CC2CC2)[C@@H]4C6)c1`, the Ki worked out at 4.3 nM on Mu-type opioid receptor [5], 11.3 nM in test [1] and 1490 nM in test [2].

A word on the Ki: it is a measure of affinity in units of concentration, obtained from inhibition or displacement. For orientation: EC50 means the concentration that produces a half-maximal response. Higher therefore signals weaker potency.
